# Binding of CDR-mutated scFvs to a peptide of the spike HR2 region

The measurements come from Li et al. 2023 (doi:10.1038/s41467-023-39022-2) through the FLAb antibody collection.

Target peptide (SARS-CoV-2 spike, HR2 region): PDVDLGDISGINAS

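The parent was found by panning a naive human phage display library on the peptide. The variants were designed computationally from a first round of random CDR variants and then made and measured. Group labels follow the data file (Ctrl: baseline library sampled from a position-specific scoring matrix, with some repeated check sequences; GP: Gaussian process model; GPLM: also part of the Gaussian process libraries; HC: hill climbing; Gen: genetic algorithm; Gibbs: Gibbs sampling; a sequence that several methods proposed may carry one label only). In AlphaSeq, yeast of one mating type display the scFv and yeast of the other type display the target. The frequency of each diploid, read from paired DNA barcodes, reflects how well the two displayed proteins bind. The ratio of observed to expected reads was calibrated, replicate by replicate, on BCL2-family standards whose Kd was known from biolayer interferometry. The assay was run in six technical replicates.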

Parent scFv Ab-14: VH joined to VL by three GGGGS repeats. Changes lie in the heavy chain CDRs alone.
VH: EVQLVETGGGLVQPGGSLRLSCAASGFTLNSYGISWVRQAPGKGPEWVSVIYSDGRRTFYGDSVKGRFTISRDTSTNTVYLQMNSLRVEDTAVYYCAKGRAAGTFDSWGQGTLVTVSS
VL: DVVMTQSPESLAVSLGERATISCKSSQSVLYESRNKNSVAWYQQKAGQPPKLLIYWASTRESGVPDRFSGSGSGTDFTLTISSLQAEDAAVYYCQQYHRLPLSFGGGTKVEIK

Variants are written as CDR1, CDR2 and CDR3 of the heavy chain (limits as in the source). Parent: GFTLNSYGIS, VIYSDGRRTFYGDSVK, GRAAGTFDS.
This list holds designs with at most six substitutions.
The Kd shown is the geometric mean over detected replicates; a lower Kd is a better binder.
Where no diploid with the target was found in any replicate, the entry reads "nd": below detection, most likely a poor binder, though not proof of it.
The authors' rule: three or more of the six replicates give a measured affinity, fewer mean a poor binder.
As a blank, each scFv also met three strains without target: over all heavy chain designs, 1% of these pairings were detected, typically at 120 nM and seldom below 7.0 nM.
Values of this round are not directly comparable with the first-round values of the same sequences.
Some sequences occur more than once in the pool; their replicates are pooled.
Of ten entries with the parent sequence, four were seen in most replicates (averages 2.2 nM to 240 nM), three in one and three in none, so single entries are noisy.

With GFWLNEYGIS / VIYSDGRRTFYEDSVK / GRAAGTFDS [Ctrl] the result was 25 nM (6 of 6 replicates). For GFTLESYGIS / VIYSDGRRTFYGDSVK / GQAAGTFSS [Ctrl], the assay gave 710 nM (1 of 6 replicates). Variant GFTLNSYGIS / VIYSDGKRTFYSDSVK / GRAAVTFDS [GP_HC] showed nd (0 of 6 replicates). For GFTLNSYGIS / VIYSDGRRTFYGDSVK / GYAAGFFDS [Ctrl], the assay gave 690 nM (3 of 6 replicates). For GFTLQSYGIS / VIYSDGRRTFYGDSVK / GREAGTFDL [Ctrl], the assay gave 1.6 nM (6 of 6 replicates). Variant WFDLNSYGIS / VIYSDGRRTAYGDSVK / GRQAGTFDS [GP_Gen] gave 6.0 nM (6 of 6 replicates).

Variant GFDLNSYGIS / VIYSDGRRTFYGDKVK / GQTAGTFDD [GP_Gibbs] gave 1.8 nM (6 of 6 replicates). Variant GFTLNDYGIS / VIYSDGRRTFYGDSVK / GRAAGTFRD [GP_HC] gave nd (0 of 6 replicates). For GFDLNSYGIS / VIYSDGRRTFYIDSVK / GRTAGTFDS [GPLM_Gen], the assay gave 4.0 nM (6 of 6 replicates). Variant GFELNEYGIS / VIYSDGRRTFYHDSVK / GRTAGTFDS [GPLM_HC] gave 1.1 nM (6 of 6 replicates). For GFDLNSYGIS / VIYSDGRRTFYGDSVK / GRAAWTFDQ [GP_HC], the assay gave nd (0 of 6 replicates). For GFTLNDYGIS / VIYSDGRRTFYGDSVK / GNAAVTFPS [Ctrl], the assay gave 3.8 nM (1 of 6 replicates).

Variant GFTLNEYGIS / VIYSDGRRTFYTDSVK / GRAAGQFDS [GP_HC] gave nd (0 of 6 replicates). With GFDLNSYGIS / VIYSDGRRTFYADSVK / GKTAGTFDA [GP_Gibbs] the result was 620 pM (6 of 6 replicates). With GFTLNDYGIS / VIYSDGRRTQYSDSVK / GRAAGTFDA [GP_HC] the result was 13 nM (6 of 6 replicates). With GFWLNDYGIS / VIYSDGRRTFYIDSVK / GRAAGTFDS [GPLM_Gen] the result was 51 nM (5 of 6 replicates). Variant GFTENSYGIS / VIYSDGRRTHYGDSVK / GRAAGTFDS [Ctrl] gave nd (0 of 6 replicates). With GFTLNSYGIS / VIYADGRRTFYGDSVK / GAAAGTFDS [GPLM_Gen] the result was 1.1 nM (6 of 6 replicates).

With GFTLESYGIS / VIYSDGRRTFYGDGVK / GREAGTFDT [GP_Gibbs] the result was 5.1 nM (2 of 6 replicates). Variant GFTLESYGIS / VIYSDGRRTFYGDSVK / GRAAGTFDQ [Ctrl+GPLM_HC] gave 5.3 nM (2 of 12 replicates). With GFDLNSYGIS / VIYSDGRRTFYIDMVK / GNAAGTFDS [GP_Gen] the result was 3.0 nM (2 of 6 replicates). Variant GFILNSYGIS / VIYSDGRRTFYGDSVK / GRAAGTFDS [Ctrl] showed 43 nM (1 of 6 replicates). Variant SFDLNSYGIS / VIYSDGRRTFYADSVK / GNAAGTFDS [GP_Gen] showed 4.0 nM (5 of 6 replicates). For GFHLNSYGIS / VIYSDGRRTFYGDSVK / GQEAGTFDT [GP_Gen], the assay gave 19 nM (6 of 6 replicates).

Variant GFSLNSYGIS / VIYSDGRRTFYGDSVK / GEAAGTFDW [GPLM_Gen] showed 270 nM (5 of 6 replicates). With GFTLNEMGIS / VIYSDGRRTFYTDSVK / GRFAGTFDS [GPLM_HC] the result was 30 nM (6 of 6 replicates). For GETANSYGIS / VIYSDGRRTFYGDSVK / GRVAGTDDS [Ctrl], the assay gave nd (0 of 6 replicates). For GFSLNSYGIS / VIYSDGRRTFYGDSVK / GQAAGTFDV [GPLM_Gen], the assay gave nd (0 of 6 replicates). For GTTLNSYGIS / VIYSDGRRTQYADSVK / GRAAVTFDS [Ctrl], the assay gave nd (0 of 6 replicates). Variant GFTLNSYGIS / VIYSDGRRTFYQDSVK / GRHAGSFDS [Ctrl] showed 300 nM (1 of 6 replicates).

Again, the first 4 entries without any signal:

{"CDR-H1": "GFTLNSYGIS", "CDR-H2": "VIYSDGKRTFYSDSVK", "CDR-H3": "GRAAVTFDS", "group": "GP_HC", "apparent Kd": "nd", "replicates with signal": "0 of 6"}
{"CDR-H1": "GFTLNDYGIS", "CDR-H2": "VIYSDGRRTFYGDSVK", "CDR-H3": "GRAAGTFRD", "group": "GP_HC", "apparent Kd": "nd", "replicates with signal": "0 of 6"}
{"CDR-H1": "GFDLNSYGIS", "CDR-H2": "VIYSDGRRTFYGDSVK", "CDR-H3": "GRAAWTFDQ", "group": "GP_HC", "apparent Kd": "nd", "replicates with signal": "0 of 6"}
{"CDR-H1": "GFTLNEYGIS", "CDR-H2": "VIYSDGRRTFYTDSVK", "CDR-H3": "GRAAGQFDS", "group": "GP_HC", "apparent Kd": "nd", "replicates with signal": "0 of 6"}